From patent publication US20050049294A1, “Methods of using [3.2.0] heterocyclic compounds and analogs thereof” (priority 2003, published 2005)

System: Jurkat cells
Assay: Cytotoxicity against Jurkat cells
Format: cell-based
Settings: Homo sapiens, 48 h

C[C@@]12OC(=O)[C@]1([C@@H](O)[C@@H]1C=CCCC1)NC(=O)[C@@H]2CCCl [Formula II-16, Salinosporamide A]
EC50: 10 nM
